IC50 data for 14 compounds are collected here from patent US20240360179A1, “STAPLED PEPTIDES AND METHODS THEREOF” (FOG PHARMACEUTICALS, INC., priority 2021, published 2024).

The chains behind the UniProt entries cited, without tags or fusion partners.
UniProt P35222, whole entry: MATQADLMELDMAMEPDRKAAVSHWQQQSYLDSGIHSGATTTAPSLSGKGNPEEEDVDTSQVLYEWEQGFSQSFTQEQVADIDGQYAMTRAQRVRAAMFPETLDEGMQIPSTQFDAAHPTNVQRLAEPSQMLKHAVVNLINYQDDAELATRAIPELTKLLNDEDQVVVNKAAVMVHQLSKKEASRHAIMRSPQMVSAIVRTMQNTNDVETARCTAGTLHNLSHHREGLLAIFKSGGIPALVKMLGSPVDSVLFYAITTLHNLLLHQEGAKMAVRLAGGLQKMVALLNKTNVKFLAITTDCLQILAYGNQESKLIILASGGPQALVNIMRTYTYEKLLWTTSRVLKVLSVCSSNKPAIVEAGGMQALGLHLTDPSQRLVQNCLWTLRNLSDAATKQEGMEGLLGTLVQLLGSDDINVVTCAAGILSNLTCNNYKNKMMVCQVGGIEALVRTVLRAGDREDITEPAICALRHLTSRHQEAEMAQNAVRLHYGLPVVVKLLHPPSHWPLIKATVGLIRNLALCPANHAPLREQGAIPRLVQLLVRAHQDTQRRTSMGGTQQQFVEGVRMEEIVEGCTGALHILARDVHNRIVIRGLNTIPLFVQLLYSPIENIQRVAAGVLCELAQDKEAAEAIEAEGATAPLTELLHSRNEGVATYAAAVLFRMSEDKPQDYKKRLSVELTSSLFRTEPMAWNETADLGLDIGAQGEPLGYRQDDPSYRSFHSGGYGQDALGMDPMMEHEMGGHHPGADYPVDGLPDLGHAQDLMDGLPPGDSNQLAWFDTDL

Molecules are shown by their SMILES.

The target in this assay is T1, full-length B-Catenin (Uniprot ID P35222) (Homo sapiens, UniProt P35222).
T1 construct: 10 nM full-length B-Catenin (Uniprot ID P35222)
Briefly: biochemical. It is filed as binding. Particulars: beta-Catenin FP IC50 (nM), competition fluorescence polarization. On the technique in general: Fluorescence polarisation rises when a labelled molecule tumbles more slowly, as on binding a larger partner.
What is called IC50 is the concentration needed to halve the response being measured. For `CCCC[C@@H]1NC(=O)C(C)(C)NC(=O)[C@H](Cc2cccc(C(=O)O)c2)NC(=O)[C@H](CC(=O)O)NC(=O)C2(CCCC=CCCCOC(=O)N3CC[C@@]4(C3)NC(=O)[C@H](CCCCNC(=O)CC[C@@H](C(=O)N[C@@H](C)C(N)=O)NC(=O)[C@H](Cc3csc5ccccc35)NC(=O)[C@H](Cc3ccsc3)NC4=O)NC(=O)[C@H](Cc3ccccc3)NC1=O)CCCC=CC[C@]1(CCCN1C(C)=O)C(=O)N[C@@H](CC(=O)O)C(=O)N[C@@H](CC(C)(C)C)C(=O)N2` (single isomer, unassigned) [I-527, Ac-PL3-Asp-Npg-B5-Asp-3COOHF-Aib-nLeu-Phe-Lys*3-PyrS2-3Thi-BztA-GlnR*3-Ala-NH2], the IC50 is < 50 nM.
Regarding `CC(=O)N1CCC[C@]12CC=CCCCC1(CCCC=CCCCOC(=O)N3CC[C@@]4(C3)NC(=O)[C@H](CCCCNC(=O)CC[C@@H](C(=O)N[C@@H](C)C(N)=O)NC(=O)[C@H](Cc3csc5ccccc35)NC(=O)[C@H](Cc3ccsc3)NC4=O)NC(=O)[C@H](Cc3ccccc3)NC(=O)[C@H](CC3CCC3)NC(=O)C(C)(C)NC(=O)[C@H](Cc3cccc(C(=O)O)c3)NC(=O)[C@H](CC(=O)O)NC1=O)NC(=O)[C@H](CC(C)(C)C)NC(=O)[C@H](CC(=O)O)NC2=O` (single isomer, unassigned) [I-531, Ac-PL3-Asp-Npg-B5-Asp-3COOHF-Aib-Cba-Phe-Lys*3-PyrS2-3Thi-BztA-GlnR*3-Ala-NH2], the IC50 was < 50 nM.
Under `CC(=O)N1CCC[C@]12CC=CCCCC1(CCCC=CCCCOC(=O)N3CC[C@@]4(C3)NC(=O)[C@H](CCCCNC(=O)CC[C@@H](C(=O)N[C@@H](C)C(N)=O)NC(=O)[C@H](Cc3csc5ccccc35)NC(=O)[C@H](Cc3ccsc3)NC4=O)NC(=O)[C@H](Cc3ccccc3)NC(=O)[C@H](C)NC(=O)C(C)(C)NC(=O)[C@H](Cc3cccc(C(=O)O)c3)NC(=O)[C@H](CC(=O)O)NC1=O)NC(=O)[C@H](CC(C)(C)C)NC(=O)[C@H](CCC(=O)O)NC2=O` (single isomer, unassigned) [I-543, Ac-PL3-Glu-Npg-B5-Asp-3COOHF-Aib-Ala-Phe-Lys*3-PyrS2-3Thi-BztA-GlnR*3-Ala-NH2] stands 50 to 200 nM.
`CC(=O)N1CCC[C@]12CC=CCCCC1(CCCC=CCCCOC(=O)N3CC[C@@]4(C3)NC(=O)[C@H](CCCCNC(=O)CC[C@@H](C(=O)N[C@@H](C)C(N)=O)NC(=O)[C@H](Cc3csc5ccccc35)NC(=O)[C@H](Cc3ccsc3)NC4=O)NC(=O)[C@H](Cc3ccccc3)NC(=O)[C@H](C)NC(=O)C(C)(C)NC(=O)[C@H](Cc3cccc(C(=O)O)c3)NC(=O)[C@H](CC(=O)O)NC1=O)NC(=O)[C@H](CC(C)(C)C)NC(=O)[C@H](CCC(=O)O)NC2=O` (single isomer, unassigned) [I-544, Ac-PL3-Glu-Npg-B5-Asp-3COOHF-Aib-Ala-Phe-Lys*3-PyrS2-3Thi-BztA-GlnR*3-Ala-NH2] showed an IC50 of 200 to 750 nM.
For the compound `CC(=O)N1CCC[C@]12CC=CCCCC1(CCCC=CCCCOC(=O)N3CC[C@@]4(C3)NC(=O)[C@H](CCCCNC(=O)CC[C@@H](C(=O)N[C@@H](C)C(N)=O)NC(=O)[C@H](Cc3csc5ccccc35)NC(=O)[C@H](Cc3ccsc3)NC4=O)NC(=O)[C@H](Cc3ccc(F)cc3)NC(=O)[C@H](C)NC(=O)C(C)(C)NC(=O)[C@H](Cc3cccc(C(=O)O)c3)NC(=O)[C@H](CC(=O)O)NC1=O)NC(=O)[C@H](CC(C)(C)C)NC(=O)[C@H](CC(=O)O)NC2=O` (single isomer, unassigned) [I-568, Ac-PL3-Asp-Npg-B5-Asp-3COOHF-Aib-Ala-4FF-Lys*3-PyrS2-3Thi-BztA-GlnR*3-Ala-NH2], the IC50 was < 50 nM.
Under `CC(=O)N1CCC[C@]12CC=CCCCC1(CCCC=CCCCOC(=O)N3CC[C@@]4(C3)NC(=O)[C@H](CCCCNC(=O)CC[C@@H](C(=O)N[C@@H](C)C(N)=O)NC(=O)[C@H](Cc3csc5ccccc35)NC(=O)[C@H](Cc3ccsc3)NC4=O)NC(=O)[C@H](Cc3ccc(Cl)cc3)NC(=O)[C@H](C)NC(=O)C(C)(C)NC(=O)[C@H](Cc3cccc(C(=O)O)c3)NC(=O)[C@H](CC(=O)O)NC1=O)NC(=O)[C@H](CC(C)(C)C)NC(=O)[C@H](CC(=O)O)NC2=O` (single isomer, unassigned) [I-570, Ac-PL3-Asp-Npg-B5-Asp-3COOHF-Aib-Ala-4ClF-Lys*3-PyrS2-3Thi-BztA-GlnR*3-Ala-NH2] stands < 50 nM; under `CC(=O)N1CCC[C@]12CC=CCCCC1(CCCC=CCCCOC(=O)N3CC[C@@]4(C3)NC(=O)[C@H](CCCCNC(=O)CC[C@@H](C(=O)N[C@@H](C)C(N)=O)NC(=O)[C@H](Cc3csc5ccccc35)NC(=O)[C@H](Cc3ccsc3)NC4=O)NC(=O)[C@H](Cc3ccc(Br)cc3)NC(=O)[C@H](C)NC(=O)C(C)(C)NC(=O)[C@H](Cc3cccc(C(=O)O)c3)NC(=O)[C@H](CC(=O)O)NC1=O)NC(=O)[C@H](CC(C)(C)C)NC(=O)[C@H](CC(=O)O)NC2=O` (single isomer, unassigned) [I-572, Ac-PL3-Asp-Npg-B5-Asp-3COOHF-Aib-Ala-4BrF-Lys*3-PyrS2-3Thi-BztA-GlnR*3-Ala-NH2], < 50 nM; under `CC(=O)N1CCC[C@]12CC=CCCCC1(CCCC=CCCCOC(=O)N3CC[C@@]4(C3)NC(=O)[C@H](CCCCNC(=O)CC[C@@H](C(=O)N[C@@H](C)C(N)=O)NC(=O)[C@H](Cc3csc5ccccc35)NC(=O)[C@H](Cc3ccsc3)NC4=O)NC(=O)[C@H](Cc3cccc(F)c3)NC(=O)[C@H](C)NC(=O)C(C)(C)NC(=O)[C@H](Cc3cccc(C(=O)O)c3)NC(=O)[C@H](CC(=O)O)NC1=O)NC(=O)[C@H](CC(C)(C)C)NC(=O)[C@H](CC(=O)O)NC2=O` (single isomer, unassigned) [I-574, Ac-PL3-Asp-Npg-B5-Asp-3COOHF-Aib-Ala-3FF-Lys*3-PyrS2-3Thi-BztA-GlnR*3-Ala-NH2], < 50 nM.
As for `CC(=O)N1CCC[C@]12CC=CCCCC1(CCCC=CCCCOC(=O)N3CC[C@@]4(C3)NC(=O)[C@H](CCCCNC(=O)CC[C@@H](C(=O)N[C@@H](C)C(N)=O)NC(=O)[C@H](Cc3csc5ccccc35)NC(=O)[C@H](Cc3ccsc3)NC4=O)NC(=O)[C@H](Cc3cccc(Cl)c3)NC(=O)[C@H](C)NC(=O)C(C)(C)NC(=O)[C@H](Cc3cccc(C(=O)O)c3)NC(=O)[C@H](CC(=O)O)NC1=O)NC(=O)[C@H](CC(C)(C)C)NC(=O)[C@H](CC(=O)O)NC2=O` (single isomer, unassigned) [I-576, Ac-PL3-Asp-Npg-B5-Asp-3COOHF-Aib-Ala-3ClF-Lys*3-PyrS2-3Thi-BztA-GlnR*3-Ala-NH2], the half-inhibitory concentration (IC50) was < 50 nM.
With `CC(=O)N1CCC[C@]12CC=CCCCC1(CCCC=CCCCOC(=O)N3CC[C@@]4(C3)NC(=O)[C@H](CCCCNC(=O)CC[C@@H](C(=O)N[C@@H](C)C(N)=O)NC(=O)[C@H](Cc3csc5ccccc35)NC(=O)[C@H](Cc3ccsc3)NC4=O)NC(=O)[C@H](Cc3cccc(Br)c3)NC(=O)[C@H](C)NC(=O)C(C)(C)NC(=O)[C@H](Cc3cccc(C(=O)O)c3)NC(=O)[C@H](CC(=O)O)NC1=O)NC(=O)[C@H](CC(C)(C)C)NC(=O)[C@H](CC(=O)O)NC2=O` (single isomer, unassigned) [I-578, Ac-PL3-Asp-Npg-B5-Asp-3COOHF-Aib-Ala-3BrF-Lys*3-PyrS2-3Thi-BztA-GlnR*3-Ala-NH2], the IC50 is < 50 nM.
Take `CC(=O)N1CCC[C@]12CC=CCCCC1(CCCC=CCCCOC(=O)N3CC[C@@]4(C3)NC(=O)[C@H](CCCCNC(=O)CC[C@@H](C(=O)N[C@@H](C)C(N)=O)NC(=O)[C@H](Cc3csc5ccccc35)NC(=O)[C@H](Cc3ccsc3)NC4=O)NC(=O)[C@H](Cc3ccccc3F)NC(=O)[C@H](C)NC(=O)C(C)(C)NC(=O)[C@H](Cc3cccc(C(=O)O)c3)NC(=O)[C@H](CC(=O)O)NC1=O)NC(=O)[C@H](CC(C)(C)C)NC(=O)[C@H](CC(=O)O)NC2=O` (single isomer, unassigned) [I-580, Ac-PL3-Asp-Npg-B5-Asp-3COOHF-Aib-Ala-2FF-Lys*3-PyrS2-3Thi-BztA-GlnR*3-Ala-NH2]: the IC50 was < 50 nM.
The result for `CC(=O)N1CCC[C@]12CC=CCCCC1(CCCC=CCCCOC(=O)N3CC[C@@]4(C3)NC(=O)[C@H](CCCCNC(=O)CC[C@@H](C(=O)N[C@@H](C)C(N)=O)NC(=O)[C@H](Cc3csc5ccccc35)NC(=O)[C@H](Cc3ccsc3)NC4=O)NC(=O)[C@H](Cc3ccc(C)cc3)NC(=O)[C@H](C)NC(=O)C(C)(C)NC(=O)[C@H](Cc3cccc(C(=O)O)c3)NC(=O)[C@H](CC(=O)O)NC1=O)NC(=O)[C@H](CC(C)(C)C)NC(=O)[C@H](CC(=O)O)NC2=O` (single isomer, unassigned) [I-588, Ac-PL3-Asp-Npg-B5-Asp-3COOHF-Aib-Ala-4MeF-Lys*3-PyrS2-3Thi-BztA-GlnR*3-Ala-NH2] reads < 50 nM; that for `CC(=O)N1CCC[C@]12CC=CCCCC1(CCCC=CCCCOC(=O)N3CC[C@@]4(C3)NC(=O)[C@H](CCCCNC(=O)CC[C@@H](C(=O)N[C@@H](C)C(N)=O)NC(=O)[C@H](Cc3csc5ccccc35)NC(=O)[C@H](Cc3ccsc3)NC4=O)NC(=O)[C@H](Cc3cccc(C)c3)NC(=O)[C@H](C)NC(=O)C(C)(C)NC(=O)[C@H](Cc3cccc(C(=O)O)c3)NC(=O)[C@H](CC(=O)O)NC1=O)NC(=O)[C@H](CC(C)(C)C)NC(=O)[C@H](CC(=O)O)NC2=O` (single isomer, unassigned) [I-590, Ac-PL3-Asp-Npg-B5-Asp-3COOHF-Aib-Ala-3MeF-Lys*3-PyrS2-3Thi-BztA-GlnR*3-Ala-NH2], < 50 nM; that for `CC(=O)N1CCC[C@]12CC=CCCCC1(CCCC=CCCCOC(=O)N3CC[C@@]4(C3)NC(=O)[C@H](CCCCNC(=O)CC[C@@H](C(=O)N[C@@H](C)C(N)=O)NC(=O)[C@H](Cc3csc5ccccc35)NC(=O)[C@H](Cc3ccsc3)NC4=O)NC(=O)C3(Cc4ccccc4C3)NC(=O)[C@H](C)NC(=O)C(C)(C)NC(=O)[C@H](Cc3cccc(C(=O)O)c3)NC(=O)[C@H](CC(=O)O)NC1=O)NC(=O)[C@H](CC(C)(C)C)NC(=O)[C@H](CC(=O)O)NC2=O` (single isomer, unassigned) [I-592, Ac-PL3-Asp-Npg-B5-Asp-3COOHF-Aib-Ala-Aic-Lys*3-PyrS2-3Thi-BztA-GlnR*3-Ala-NH2], > 1000 nM.
